Consider 1 molecule from ChEMBL document CHEMBL3045240, “Structural aspects of ryanodine action and selectivity” (J Med Chem, 1987).

Sequences of proteins named here, by UniProt entry; tags and fusion partners are left off. A change or cut given only in a name is not applied to a line headed by its entry.
UniProt P11716: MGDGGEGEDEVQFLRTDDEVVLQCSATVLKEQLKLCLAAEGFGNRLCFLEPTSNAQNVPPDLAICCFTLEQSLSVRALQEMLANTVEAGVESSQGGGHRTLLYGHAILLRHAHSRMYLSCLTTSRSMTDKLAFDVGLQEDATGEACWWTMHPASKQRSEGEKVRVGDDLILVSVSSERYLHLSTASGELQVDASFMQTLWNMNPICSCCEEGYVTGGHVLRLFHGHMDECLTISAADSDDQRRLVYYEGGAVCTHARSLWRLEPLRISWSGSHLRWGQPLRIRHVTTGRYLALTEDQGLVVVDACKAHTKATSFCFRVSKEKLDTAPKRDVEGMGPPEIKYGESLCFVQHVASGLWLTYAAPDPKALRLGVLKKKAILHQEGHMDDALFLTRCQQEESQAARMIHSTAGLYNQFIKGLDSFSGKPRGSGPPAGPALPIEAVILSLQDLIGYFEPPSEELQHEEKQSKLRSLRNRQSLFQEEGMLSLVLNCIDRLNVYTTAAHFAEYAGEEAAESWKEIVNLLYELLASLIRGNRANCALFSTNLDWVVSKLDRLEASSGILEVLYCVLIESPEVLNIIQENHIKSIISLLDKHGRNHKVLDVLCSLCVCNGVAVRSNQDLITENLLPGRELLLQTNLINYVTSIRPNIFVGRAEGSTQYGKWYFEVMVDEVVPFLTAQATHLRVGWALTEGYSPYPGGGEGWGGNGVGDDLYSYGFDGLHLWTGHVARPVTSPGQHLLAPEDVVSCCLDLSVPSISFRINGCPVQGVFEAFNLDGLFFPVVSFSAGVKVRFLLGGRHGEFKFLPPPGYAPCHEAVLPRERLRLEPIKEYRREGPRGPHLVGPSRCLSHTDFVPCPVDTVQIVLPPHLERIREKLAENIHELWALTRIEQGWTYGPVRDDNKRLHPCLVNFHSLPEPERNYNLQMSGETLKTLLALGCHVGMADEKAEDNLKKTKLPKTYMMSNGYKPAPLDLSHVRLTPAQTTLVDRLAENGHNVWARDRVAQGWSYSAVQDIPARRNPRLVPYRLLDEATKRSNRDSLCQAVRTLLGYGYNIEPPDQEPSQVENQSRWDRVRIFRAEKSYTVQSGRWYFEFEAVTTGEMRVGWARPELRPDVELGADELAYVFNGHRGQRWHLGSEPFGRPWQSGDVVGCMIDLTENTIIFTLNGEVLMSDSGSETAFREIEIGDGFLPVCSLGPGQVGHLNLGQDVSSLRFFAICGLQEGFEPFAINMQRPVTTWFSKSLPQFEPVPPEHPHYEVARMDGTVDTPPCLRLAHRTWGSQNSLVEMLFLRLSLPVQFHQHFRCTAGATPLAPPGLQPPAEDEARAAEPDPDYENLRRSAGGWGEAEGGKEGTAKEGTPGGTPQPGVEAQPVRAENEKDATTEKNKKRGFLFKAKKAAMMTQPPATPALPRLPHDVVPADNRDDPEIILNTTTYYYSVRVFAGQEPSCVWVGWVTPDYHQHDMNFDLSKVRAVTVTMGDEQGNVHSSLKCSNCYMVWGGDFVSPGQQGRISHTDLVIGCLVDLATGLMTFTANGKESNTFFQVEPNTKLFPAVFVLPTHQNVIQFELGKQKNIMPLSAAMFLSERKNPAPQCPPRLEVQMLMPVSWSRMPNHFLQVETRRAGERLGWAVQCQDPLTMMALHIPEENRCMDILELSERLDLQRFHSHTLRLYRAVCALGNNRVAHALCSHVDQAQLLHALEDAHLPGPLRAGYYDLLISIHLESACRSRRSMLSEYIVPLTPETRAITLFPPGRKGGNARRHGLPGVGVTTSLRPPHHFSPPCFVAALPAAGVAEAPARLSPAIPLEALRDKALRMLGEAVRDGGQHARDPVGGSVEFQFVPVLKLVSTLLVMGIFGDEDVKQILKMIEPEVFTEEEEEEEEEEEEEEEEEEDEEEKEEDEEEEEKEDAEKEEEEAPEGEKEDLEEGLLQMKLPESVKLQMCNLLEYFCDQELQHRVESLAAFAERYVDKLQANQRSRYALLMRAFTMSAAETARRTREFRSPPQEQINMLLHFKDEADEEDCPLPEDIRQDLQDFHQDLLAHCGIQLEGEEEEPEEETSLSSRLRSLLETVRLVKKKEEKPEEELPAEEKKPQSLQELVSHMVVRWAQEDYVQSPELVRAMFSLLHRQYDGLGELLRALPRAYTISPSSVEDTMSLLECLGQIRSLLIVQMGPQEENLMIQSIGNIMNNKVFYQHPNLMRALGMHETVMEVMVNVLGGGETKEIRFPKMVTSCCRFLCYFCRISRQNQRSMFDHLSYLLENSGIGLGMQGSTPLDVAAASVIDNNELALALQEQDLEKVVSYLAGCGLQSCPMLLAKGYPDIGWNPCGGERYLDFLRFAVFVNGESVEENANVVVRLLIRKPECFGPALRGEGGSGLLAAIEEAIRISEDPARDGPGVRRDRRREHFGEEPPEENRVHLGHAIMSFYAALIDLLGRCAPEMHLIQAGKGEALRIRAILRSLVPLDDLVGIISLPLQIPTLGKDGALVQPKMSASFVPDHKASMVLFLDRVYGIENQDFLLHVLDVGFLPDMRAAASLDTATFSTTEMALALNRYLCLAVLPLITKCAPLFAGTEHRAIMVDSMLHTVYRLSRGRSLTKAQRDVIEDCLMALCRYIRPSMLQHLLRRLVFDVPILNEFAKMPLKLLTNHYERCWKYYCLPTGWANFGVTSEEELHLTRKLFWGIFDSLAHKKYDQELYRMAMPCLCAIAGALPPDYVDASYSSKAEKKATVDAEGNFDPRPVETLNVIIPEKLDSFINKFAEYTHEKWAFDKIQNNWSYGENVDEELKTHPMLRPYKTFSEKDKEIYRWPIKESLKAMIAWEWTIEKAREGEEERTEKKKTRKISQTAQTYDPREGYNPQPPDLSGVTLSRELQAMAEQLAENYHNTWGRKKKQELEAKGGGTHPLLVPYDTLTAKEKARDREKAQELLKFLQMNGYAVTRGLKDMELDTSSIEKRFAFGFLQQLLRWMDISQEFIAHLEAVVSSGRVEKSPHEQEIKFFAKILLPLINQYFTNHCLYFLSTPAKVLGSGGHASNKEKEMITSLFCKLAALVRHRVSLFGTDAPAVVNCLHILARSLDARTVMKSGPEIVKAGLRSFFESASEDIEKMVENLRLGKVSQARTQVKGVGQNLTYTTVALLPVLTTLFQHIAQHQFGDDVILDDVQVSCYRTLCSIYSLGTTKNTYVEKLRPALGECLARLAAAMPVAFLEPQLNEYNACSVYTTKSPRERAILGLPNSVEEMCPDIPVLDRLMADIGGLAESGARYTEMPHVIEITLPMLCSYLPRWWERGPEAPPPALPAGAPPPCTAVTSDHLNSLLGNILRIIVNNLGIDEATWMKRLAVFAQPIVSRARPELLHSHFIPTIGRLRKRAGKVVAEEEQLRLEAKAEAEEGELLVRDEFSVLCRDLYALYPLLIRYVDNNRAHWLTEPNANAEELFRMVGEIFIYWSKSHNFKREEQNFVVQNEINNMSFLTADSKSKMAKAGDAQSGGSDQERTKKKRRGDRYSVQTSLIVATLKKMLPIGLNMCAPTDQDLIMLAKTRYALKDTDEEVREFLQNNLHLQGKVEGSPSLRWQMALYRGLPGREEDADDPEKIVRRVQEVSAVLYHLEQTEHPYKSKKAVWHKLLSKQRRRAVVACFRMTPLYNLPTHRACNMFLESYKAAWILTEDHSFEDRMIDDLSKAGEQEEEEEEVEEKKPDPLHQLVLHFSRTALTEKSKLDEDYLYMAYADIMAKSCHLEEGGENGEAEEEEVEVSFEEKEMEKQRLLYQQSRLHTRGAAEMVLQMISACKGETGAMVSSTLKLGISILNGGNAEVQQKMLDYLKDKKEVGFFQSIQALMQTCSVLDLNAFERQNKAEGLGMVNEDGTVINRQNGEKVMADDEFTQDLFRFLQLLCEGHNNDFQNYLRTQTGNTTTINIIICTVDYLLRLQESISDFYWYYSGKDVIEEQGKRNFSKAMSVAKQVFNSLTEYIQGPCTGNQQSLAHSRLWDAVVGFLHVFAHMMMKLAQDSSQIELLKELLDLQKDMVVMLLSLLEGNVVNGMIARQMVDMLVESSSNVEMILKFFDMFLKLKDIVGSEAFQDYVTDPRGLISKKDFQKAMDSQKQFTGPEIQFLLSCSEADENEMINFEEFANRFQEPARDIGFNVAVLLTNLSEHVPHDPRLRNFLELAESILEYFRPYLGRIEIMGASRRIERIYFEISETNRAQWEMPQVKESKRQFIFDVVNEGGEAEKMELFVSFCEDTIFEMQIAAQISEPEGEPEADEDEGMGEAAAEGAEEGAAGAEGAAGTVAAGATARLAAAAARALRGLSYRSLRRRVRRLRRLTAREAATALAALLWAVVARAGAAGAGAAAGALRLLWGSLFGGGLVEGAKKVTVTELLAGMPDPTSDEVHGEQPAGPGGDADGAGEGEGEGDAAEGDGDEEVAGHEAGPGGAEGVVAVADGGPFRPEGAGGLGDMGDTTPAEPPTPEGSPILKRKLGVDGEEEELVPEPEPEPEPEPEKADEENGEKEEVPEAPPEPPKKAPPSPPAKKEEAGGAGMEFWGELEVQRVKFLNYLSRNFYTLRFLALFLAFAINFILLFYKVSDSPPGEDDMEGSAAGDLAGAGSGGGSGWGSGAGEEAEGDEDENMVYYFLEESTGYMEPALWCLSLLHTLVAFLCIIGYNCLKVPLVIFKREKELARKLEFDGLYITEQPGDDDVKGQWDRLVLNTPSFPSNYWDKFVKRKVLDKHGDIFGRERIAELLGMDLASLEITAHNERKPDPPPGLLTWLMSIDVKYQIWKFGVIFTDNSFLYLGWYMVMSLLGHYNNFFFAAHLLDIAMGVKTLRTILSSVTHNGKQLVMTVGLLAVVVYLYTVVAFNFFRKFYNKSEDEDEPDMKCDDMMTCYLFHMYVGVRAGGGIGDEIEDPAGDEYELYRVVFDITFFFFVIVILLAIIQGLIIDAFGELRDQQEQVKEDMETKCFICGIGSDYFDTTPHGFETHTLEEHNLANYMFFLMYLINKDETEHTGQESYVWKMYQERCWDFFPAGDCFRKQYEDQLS

A word on the IC50: it is the concentration needed to halve the response being measured.

In this assay the target is Ryanodine receptor 1 (Oryctolagus cuniculus, UniProt P11716).

In the case of `CC(C)[C@@]1(O)[C@@H](OC(=O)c2ccc[nH]2)[C@@]2(O)[C@@]3(C)C[C@]4(O)O[C@@]5([C@H](O)[C@H](C)CC[C@]35O)[C@@]2(O)[C@]14C` [EPIRYANODINE], the IC50 came out at 41 nM. That is a double-digit nanomolar value.
